{"sequences": {"note": "The chains behind the UniProt entries cited, without tags or fusion partners.", "UniProt Q15858, whole entry": "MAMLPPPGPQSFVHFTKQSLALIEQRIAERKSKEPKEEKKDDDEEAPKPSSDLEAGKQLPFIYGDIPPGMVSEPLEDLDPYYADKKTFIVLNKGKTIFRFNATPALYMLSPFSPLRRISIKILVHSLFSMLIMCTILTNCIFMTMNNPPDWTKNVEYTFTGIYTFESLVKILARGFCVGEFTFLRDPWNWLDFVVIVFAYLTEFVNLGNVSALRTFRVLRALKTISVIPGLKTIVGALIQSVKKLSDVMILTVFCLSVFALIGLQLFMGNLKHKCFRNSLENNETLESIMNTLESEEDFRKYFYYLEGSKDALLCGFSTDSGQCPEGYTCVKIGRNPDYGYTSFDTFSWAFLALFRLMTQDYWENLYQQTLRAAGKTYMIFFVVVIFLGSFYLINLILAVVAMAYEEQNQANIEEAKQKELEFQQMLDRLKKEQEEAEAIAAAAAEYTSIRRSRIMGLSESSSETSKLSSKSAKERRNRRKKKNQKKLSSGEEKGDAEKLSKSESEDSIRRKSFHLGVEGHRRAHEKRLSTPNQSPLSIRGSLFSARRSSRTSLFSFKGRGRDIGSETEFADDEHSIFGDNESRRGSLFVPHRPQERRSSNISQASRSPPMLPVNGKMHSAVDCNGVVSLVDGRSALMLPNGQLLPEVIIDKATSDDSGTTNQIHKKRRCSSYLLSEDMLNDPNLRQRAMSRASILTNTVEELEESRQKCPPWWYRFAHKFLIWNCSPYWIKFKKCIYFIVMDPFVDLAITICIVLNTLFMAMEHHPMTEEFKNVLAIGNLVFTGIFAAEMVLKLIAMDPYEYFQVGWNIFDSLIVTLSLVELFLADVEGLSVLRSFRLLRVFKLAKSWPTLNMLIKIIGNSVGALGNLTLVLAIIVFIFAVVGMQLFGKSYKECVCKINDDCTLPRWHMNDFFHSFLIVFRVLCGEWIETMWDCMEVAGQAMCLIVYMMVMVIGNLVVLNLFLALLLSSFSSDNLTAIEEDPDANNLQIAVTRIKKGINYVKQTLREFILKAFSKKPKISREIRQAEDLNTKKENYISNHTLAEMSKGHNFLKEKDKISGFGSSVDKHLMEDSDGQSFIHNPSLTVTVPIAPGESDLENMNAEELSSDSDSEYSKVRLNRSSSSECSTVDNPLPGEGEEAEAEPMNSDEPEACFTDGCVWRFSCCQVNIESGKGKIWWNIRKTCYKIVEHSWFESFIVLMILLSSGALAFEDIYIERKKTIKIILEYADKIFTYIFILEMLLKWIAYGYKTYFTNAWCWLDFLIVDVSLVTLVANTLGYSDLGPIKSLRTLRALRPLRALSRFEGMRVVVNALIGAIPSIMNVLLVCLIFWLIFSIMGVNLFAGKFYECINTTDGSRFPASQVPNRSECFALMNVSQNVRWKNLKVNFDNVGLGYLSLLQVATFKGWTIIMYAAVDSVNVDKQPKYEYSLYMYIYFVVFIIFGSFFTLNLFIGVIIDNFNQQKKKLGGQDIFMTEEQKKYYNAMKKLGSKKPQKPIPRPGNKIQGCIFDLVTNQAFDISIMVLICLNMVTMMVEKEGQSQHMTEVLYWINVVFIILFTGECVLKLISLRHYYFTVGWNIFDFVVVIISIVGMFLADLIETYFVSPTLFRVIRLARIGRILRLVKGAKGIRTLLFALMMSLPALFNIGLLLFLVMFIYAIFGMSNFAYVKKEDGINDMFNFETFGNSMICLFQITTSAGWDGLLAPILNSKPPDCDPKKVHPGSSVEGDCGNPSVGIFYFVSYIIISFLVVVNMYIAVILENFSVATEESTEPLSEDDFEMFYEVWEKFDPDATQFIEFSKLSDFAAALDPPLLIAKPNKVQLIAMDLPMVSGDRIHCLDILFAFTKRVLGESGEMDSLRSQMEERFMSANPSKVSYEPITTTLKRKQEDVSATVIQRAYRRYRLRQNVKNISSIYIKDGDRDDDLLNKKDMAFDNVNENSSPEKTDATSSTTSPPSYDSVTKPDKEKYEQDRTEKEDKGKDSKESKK"}, "source": "paper PMC4516925", "about": "“Three Peptide Modulators of the Human Voltage-Gated Sodium Channel 1.7, an Important Analgesic Target, from the Venom of an Australian Tarantula” (Toxins, 2015)", "origin": "cited, not measured here", "biological_target": "T1, hNaV1.7 (Homo sapiens, UniProt Q15858)", "T1 construct": "expressed in transfected cells; host or cells: Xenopus oocytes (cRNA injection)", "details": "cited from earlier work", "data": [{"substance": "ProTx-II: most potent blocker of hNaV1.7 within NaSpTx family 3", "values": [{"measurement": "IC50", "value": 0.3, "unit": "nM"}]}]}
